1 molecule from patent publication US8835458B2 (Hanmi Science Co., Ltd, priority 2010, dated 2014) can be followed below.

In one data set the test system is caspase 9. Nature of the data set: Evaluation of caspase activity (Caspase-Glo 9 Assay Kit). It is filed as cell-based. The conditions noted are these: MDA-MB-231 cells, 16 hours, compared to untreated MDA-MB-231 cells; 0.5, 1, 5 μM tested. The protocol:
(§1) MDA-MB-231 breast cancer cells (ATCC #HTB-26) were plated in 96-well plates at a density of 1.0 1.5×10^4 cells/well. […] Then, media were removed and the cells were washed two times with PBS at 4° C. The cells were treated with a solution of the analysis samples and media (1:1) in an amount of 140 μL/well using Caspase-GloTM 9 Assay Kit (Cat#. […]; Promega, USA) and Caspase-GloTM 3/7 Assay Kit (Cat#. […]; Promega, USA). After the cells were incubated at 37° C. for 2 hours, luminescence was measured using InfiniteTM M1000 multi reader (Tecan). […] The values were represented as “***” for six fold or more, “**” for 4 fold to below 6 fold, and “*” for 1 fold to below 4 fold, as compared to that of untreated, normal MDA-MB-231 breast cancer cell lines.

A further data set concerns Hs27 fibroblasts. As to the kind of experiment: Toxicity to normal cells (SRB). It is filed as cell-based, human. The conditions noted are these: normal cell line, 72 hours. The method, then: (§2) MDA-MB-231 breast cancer cell lines (ATCC #HTB-26) and BxPC-3 pancreas cancer cell lines (ATCC #CRL 1687), which have been reported to express XIAP, were obtained from ATCC (American type culture collection; Rockville, Md.). MDA-MB-231 cell lines were incubated in L-15 medium supplemented with 10% FBS and 1% penicillin/streptomycin (Gibco BRL) at a T-75 cm^2 growth flask. In addition, BxPC-3 cell lines were incubated in RPMI medium supplemented with 10% FBS and 1% penicillin/streptomycin. For experiments of toxicity to normal cells, fibroblasts Hs27 (ATCC #CRL 1634) and Balb/c3t3 (ATCC #CCL 163) were used. […]
(§3) Cell viabilities of MDA-MB-231 cell lines were measured at an absorbance of 490 nm using CellTiter 96™ AQueous One Solution Cell proliferation Assay (MTS, Promega), and cell viabilities of BxPC-3 and normal cell lines were measured by fixing cells with 10% TCA (trichloroacetic acid), staining with SRB (sulforhodamine B), and measuring at 540 nm. […] The growth rates of cancer cells were calculated from following Equation 1 or 2. […] In Equations 1 and 2, Tz refers to a density of untreated cells, which is an absorbance in 0% cell growth groups. […]

For the next data set, the system named is caspase 3/7. As to the kind of experiment: Evaluation of caspase activity (Caspase-Glo 3/7 Assay Kit). The conditions noted are these: MDA-MB-231 cells, 12 hours, compared to untreated MDA-MB-231 cells; 0.5, 1, 5 μM tested. The format is cell-based. The method, then: as §1
For data set [1], the system named is MDA-MB-231 breast cancer cell lines. Nature of the data set: Evaluation of inhibition on cell growth (MTS). The format is cell-based. The conditions noted are these: 120 hours. The protocol: as §2, §3
A further data set concerns Balb/c3t3 fibroblasts. As to the kind of experiment: Toxicity to normal cells (SRB). The conditions noted are these: normal cell line, 72 hours, read-out: BalB/C (GI50). It is filed as cell-based, mouse. The method, then: as §2, §3

`C[C@H](N)C(=O)N[C@@H](CCCNC(=N)N)C(=O)N1CCC[C@H]1C(=O)N[C@@H](Cc1ccccc1)C(N)=O` [Control, alanine-alginine-proline-phenylalanine-NH2, reference compound]: in the data set with caspase 9, the Caspase-9 result is recorded as “** (4 fold to below 6 fold)”. The results for the GI50 (in the data set with Hs27 fibroblasts; in data set [1]; in the data set with Balb/c3t3 fibroblasts) were over 10 µM, 100 to 1000 nM and over 10 µM, respectively. Moreover, in the data set on caspase 3/7, the Caspase-3 entry is “** (4 fold to below 6 fold)”.
